The experiment concerns Trypanosoma brucei. Kind of experiment: Inhibition of Trypanosoma brucei rhodesain assessed as second order rate constant.

The values below come from ChEMBL document CHEMBL2401704, “Inhibition of rhodesain as a novel therapeutic modality for human African trypanosomiasis” (J Med Chem, 2013).

`C[C@H](NC(=O)[C@H](Cc1ccccc1)NC(=O)OCc1ccccc1)C(=O)C=[N+]=[N-]`: the K was 3.3 ×10⁶ /M/min.
